Results on eight molecules are retold here after patent US5032577A, “Peptidylaminodiols” (Abbott Laboratories, priority 1987, dated 1991).

Chains of the proteins cited; added tags and fusions are not shown. Residues count along the entry.
UniProt P00797, 67-406: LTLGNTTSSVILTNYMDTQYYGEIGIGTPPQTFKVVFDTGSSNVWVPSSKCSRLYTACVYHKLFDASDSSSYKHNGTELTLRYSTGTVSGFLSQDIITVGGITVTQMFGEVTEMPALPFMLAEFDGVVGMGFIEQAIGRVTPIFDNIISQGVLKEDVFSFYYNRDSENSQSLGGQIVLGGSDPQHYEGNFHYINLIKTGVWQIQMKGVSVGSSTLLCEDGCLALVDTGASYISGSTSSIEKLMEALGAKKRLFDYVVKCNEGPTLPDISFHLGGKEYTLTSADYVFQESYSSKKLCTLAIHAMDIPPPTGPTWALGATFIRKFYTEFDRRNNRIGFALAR

By IC50 is commonly meant the concentration at which inhibition is half-maximal. Higher therefore signals lower potency.

The first test has as its target T1, human renal renin (Homo sapiens, UniProt P00797).
T1 construct: human renal renin, free from acid proteolytic activity; from tissue
Nature of the test: Inhibition of human renal renin in vitro; angiotensin I formed measured by radioimmunoassay. The class given is biochemical.
Conditions: not given
The molecule `CC(C)C[C@H](O)[C@H](O)[C@H](CC1CCCCC1)NC(=O)[C@H](Cc1cc[nH]n1)NC(=O)[C@H](Cc1ccccc1)NC(=O)OC(C)(C)C` [Example 35, Boc-Phe-PAla Amide of 2(S)-Amino-1-cyclohexyl-3(R),4(S)-dihydroxy-6-methylheptane] displayed an IC50 of 1 nM.
For `CC(C)C[C@H](O)[C@H](O)[C@H](CC1CCCCC1)NC(=O)[C@H](Cc1c[nH]cn1)NC(=O)[C@@H](O)Cc1ccccc1` [Example 25, Pl-His Amide of 2(S)-Amino-l-cyclohexyl-3(R),4(S)-dihydroxy-6-methylheptane], half-maximal inhibition (IC50) required 20 nM.
In the case of `CC(C)C[C@H](NC(=O)[C@H](Cc1ccccc1)NC(=O)OCCCO)C(=O)N[C@@H](CC1CCCCC1)[C@@H](O)[C@@H](O)CC(C)C` [Example 91, 3-Hydroxypropyloxycarbonyl-Phe-Leu Amide of 2(S)-Amino-1-cyclohexyl-3(R),4(S)-dihydroxy-6-methylheptane], the half-maximal inhibitory concentration (IC50) is 0.3 nM.
On the same count and under the same terms, the result for `CCCCN[C@@H](Cc1ccc(OC)cc1)C(=O)N[C@@H](Cc1c[nH]cn1)C(=O)N[C@@H](CC1CCCCC1)[C@@H](O)[C@@H](O)CC(C)C` [Example 54, (N-Butyl, 4-OCH3)Phe-His Amide of 2(S)-Amino-1-cyclohexyl-3(R),4(S)-dihydroxy-6-methylheptane] reads 0.95 nM.
The same measure, in the same setting: the result for `CC(C)C[C@H](O)[C@H](O)[C@H](CC1CCCCC1)NC(=O)[C@H](Cc1c[nH]cn1)NC(=O)[C@H](Cc1ccccc1)NC(=O)COCc1ccccc1` [Example 102, Benzyloxyacetyl-Phe-His Amide of 2(S)-Amino-l-cyclohexyl-3(R),4(S)-dihydroxy-6-methylheptane] reads 0.6 nM; that for `COc1ccc(C[C@H](NC(=O)N2CCOCC2)C(=O)N[C@@H](Cc2cnc[nH]2)C(=O)N[C@@H](CC2CCCCC2)[C@@H](O)[C@@H](O)CC(C)C)cc1` [Example 127, [(4-Morpholinyl)carbonyl]-(4-OCH3)Phe-His Amide of 2(S) -Amino-l-cyclohexyl-3(R),4(S)-dihydroxy-6-methylheptane], 0.75 nM.

The same test, now with this note: human renal renin free from acid proteolytic activity, renin substrate human angiotensinogen, 37° C., pH 6.0.
In turn, `CC(C)C[C@H](O)[C@H](O)[C@H](CC1CCCCC1)NC(=O)[C@H](Cc1c[nH]cn1)NC(=O)[C@H](Cc1ccccc1)NC(=O)NC(C)(C)C` [Example 32, Tbac-Phe-His Amide of 2(S)-Amino-l-cyclohexyl-3(R),4(S)-dihydroxy-6-methylheptane] displayed a concentration for half-maximal inhibition (IC50) of 2 nM.
Still for that read-out and setting: in the case of `CCOC(=O)N[C@@H](Cc1ccccc1)C(=O)N[C@@H](Cc1c[nH]cn1)C(=O)N[C@@H](CC1CCCCC1)[C@@H](O)[C@@H](O)CC(C)C` [Example 29, Ethoxycarbonyl-Phe-His Amide of 2(S)-Amino-1-cyclohexyl-3(R),4(S)-dihydroxy-6-ethylheptane] it was 0.6 nM.
